Yeast mating assay 1: variants of the scFv Ab-14

Target: peptide PDVDLGDISGINAS, taken from heptad repeat 2 (HR2) of SARS-CoV-2 spike.

Each scFv is VH, a 15-residue (Gly4Ser)3 linker, VL, as in the parent Ab-14, and differs from it in the CDRs of the light chain only.
VH: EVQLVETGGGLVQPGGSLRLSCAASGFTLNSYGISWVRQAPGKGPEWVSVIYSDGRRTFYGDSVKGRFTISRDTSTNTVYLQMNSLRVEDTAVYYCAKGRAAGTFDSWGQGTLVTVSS
VL: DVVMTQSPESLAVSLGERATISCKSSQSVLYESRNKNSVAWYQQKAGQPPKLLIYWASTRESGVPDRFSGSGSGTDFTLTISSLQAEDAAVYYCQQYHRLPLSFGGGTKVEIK

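The starting antibody came from a phage panning campaign against this peptide. The library (AAYL50) carries one to three amino acid substitutions per variant, with no insertions or deletions. In AlphaSeq, yeast of one mating type display the scFv and yeast of the other type display the target. Binding brings cells together so that they mate, and sequencing counts the barcode pairs among the diploids. Read counts were normalised to the haploid input and turned into Kd by a linear fit to BCL2-family pairs of known affinity, for each replicate. Mating was done three times.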

The whole VL of each variant is written out. Kd is apparent (estimated from mating counts) and averaged on the log scale over replicates with a signal. Smaller is tighter. An entry "no signal" has no value in the source: the pair was not observed among the diploids in any replicate. This suggests poor binding but is not conclusive. Order: sorted from the lowest average up, undetected variants last. Nonspecific signal, from three strains lacking the peptide, appeared in 18% of pairings of library AAYL50, centred on 15 µM (5% of these signals below 970 nM); values are not corrected for it. For each scFv, signals with the empty controls are counted beside the result.

| VL | Kd (apparent) | replicates with signal | signal with controls |
|---|---|---|---|
| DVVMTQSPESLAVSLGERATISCKSSESVLYGSRNKNSVAWYQQKAGQPPKLLIYWASTRFSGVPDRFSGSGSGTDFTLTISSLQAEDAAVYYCQQYHRLPLSFGGGTKVEIK | 8.6 nM | 3 of 3 | 6 of 9 |
| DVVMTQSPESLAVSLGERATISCKSSQSVSYESRNKNSVAWYQQKAGQPPKLLIYWASTRCVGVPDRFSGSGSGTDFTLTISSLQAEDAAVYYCQQYHRLPLSFGGGTKVEIK | 51 nM | 3 of 3 | 0 of 9 |
| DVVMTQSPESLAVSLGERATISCRSYQSVLYESRNKNSVAWYQQKAGQPPKLLIYWASTRESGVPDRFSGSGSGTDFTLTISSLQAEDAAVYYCQQYHRLVLSFGGGTKVEIK | 200 nM | 3 of 3 | 0 of 9 |
| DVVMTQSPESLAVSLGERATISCKSSQSVLYESRNKNSVAWYQQKAGQPPKLLIYYASTRESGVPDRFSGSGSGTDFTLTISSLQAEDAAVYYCAQYTRLPLSFGGGTKVEIK | 270 nM | 2 of 3 | 0 of 9 |
| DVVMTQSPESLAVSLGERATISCKSRQSVLYESRNKSSVAWYQQKAGQPPKLLIYWAQTRESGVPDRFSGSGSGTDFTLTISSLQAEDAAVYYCQQYHRLPLSFGGGTKVEIK | 330 nM | 2 of 3 | 0 of 9 |
| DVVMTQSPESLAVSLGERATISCKSSQEVLYESRNKNNFAWYQQKAGQPPKLLIYWASTRESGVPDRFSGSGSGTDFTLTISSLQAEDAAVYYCQQYHRLPLSFGGGTKVEIK | 1.4 µM | 3 of 3 | 0 of 9 |
| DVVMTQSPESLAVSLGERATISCKSSQSVLYESRNKNSVAWYQQKAGQPPKLLIYWAWTRESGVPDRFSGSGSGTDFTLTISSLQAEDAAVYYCQQYHRGPRSFGGGTKVEIK | 1.6 µM | 1 of 3 | 0 of 9 |
| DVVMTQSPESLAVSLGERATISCKPSQSVLYESRNKNSVAWYQQKAGQPPKLLIYWASTRESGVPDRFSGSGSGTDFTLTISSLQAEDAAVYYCKQYHRLPSSFGGGTKVEIK | 16 µM | 1 of 3 | 3 of 9 |
| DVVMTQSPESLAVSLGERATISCKGSQSVLYELRNKNSVAWYQQKAGQPPKLLIYWASTRESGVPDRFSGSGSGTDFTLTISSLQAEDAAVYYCQQYHRLPISFGGGTKVEIK | 19 µM | 2 of 3 | 3 of 9 |
| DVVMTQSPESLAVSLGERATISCKSSQWVLYESRNKNSVAWYQQKAGQPPKLLIYWASTIESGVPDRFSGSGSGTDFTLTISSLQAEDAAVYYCQQYHRLPLSFGGGTKVEIK | 24 µM | 1 of 3 | 0 of 9 |
| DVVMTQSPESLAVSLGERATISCKSSQSVLYESRNGNSVAWYQQKAGQPPKLLIYWASTHESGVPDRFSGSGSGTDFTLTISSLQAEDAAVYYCQQYHRCPLSFGGGTKVEIK | no signal | 0 of 3 | 0 of 9 |
| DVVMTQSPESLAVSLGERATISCKSSQSVLYESFNKNSVAWYQQKAGQPPKLLIYWVSTRESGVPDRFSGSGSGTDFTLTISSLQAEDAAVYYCPQYHRLPLSFGGGTKVEIK | no signal | 0 of 3 | 0 of 9 |
| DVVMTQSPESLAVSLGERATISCKSSQSVLYESRNFNSVAWYQQKAGQPPKLLIYLASTRESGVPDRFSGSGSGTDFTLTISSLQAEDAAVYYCQQPHRLPLSFGGGTKVEIK | no signal | 0 of 3 | 0 of 9 |
| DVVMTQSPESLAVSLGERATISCKTSQSVLYESRNKNSVAWYQQKAGQPPKLLIYWASTRESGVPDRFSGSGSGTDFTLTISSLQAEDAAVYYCQQYHRLPHSFGGGTKVEIK | no signal | 0 of 3 | 0 of 9 |

Again, the first 2 entries without any signal:

| VL | Kd (apparent) | replicates with signal | signal with controls |
|---|---|---|---|
| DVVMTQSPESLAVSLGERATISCKSSQSVLYESRNGNSVAWYQQKAGQPPKLLIYWASTHESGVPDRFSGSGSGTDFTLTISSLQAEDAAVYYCQQYHRCPLSFGGGTKVEIK | no signal | 0 of 3 | 0 of 9 |
| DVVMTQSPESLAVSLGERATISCKSSQSVLYESFNKNSVAWYQQKAGQPPKLLIYWVSTRESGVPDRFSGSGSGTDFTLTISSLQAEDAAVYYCPQYHRLPLSFGGGTKVEIK | no signal | 0 of 3 | 0 of 9 |

Source: Engelhart et al. 2022 (doi:10.1038/s41597-022-01779-4), MIT Lincoln Laboratory and A-Alpha Bio; data file from the FLAb repository.